# Patent US8580794B2 (AbbVie Inc., priority 2009, dated 2013)
# Amino acid sequences for entries named in this document (tags omitted).
# UniProt P10415, whole entry: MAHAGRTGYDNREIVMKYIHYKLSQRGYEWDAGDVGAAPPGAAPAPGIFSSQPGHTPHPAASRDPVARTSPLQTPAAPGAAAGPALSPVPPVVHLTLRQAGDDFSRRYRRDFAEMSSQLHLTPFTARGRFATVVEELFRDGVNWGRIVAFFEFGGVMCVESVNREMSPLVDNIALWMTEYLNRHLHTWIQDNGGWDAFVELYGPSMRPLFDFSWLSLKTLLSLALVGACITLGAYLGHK
# Target: GST-Bc1-2 (Homo sapiens, UniProt P10415)
# Assay: Time Resolved-Fluorescence Resonance Energy Transfer (TR-FRET) Bcl-2 binding assay with F-Bak peptide probe
# [1] = GST-Bcl-2 1 nM, F-Bak probe 100 nM, Tb-anti-GST 1 nM, '<' = below limit of detection, read-out: TR-FRET Bcl-2 Binding Ki
SMILES,Ki [1] [pM],"Ki (Table 5, direct comparison Z=N vs Z=C analogs, read-out: Bcl-2 FRET ki) [pM]"
"CN1CCN(Nc2ccc(S(=O)(=O)NC(=O)c3ccc(N4CCN(CC5=C(c6ccc(Cl)cc6)CC(C)(C)CC5)CC4)cc3Oc3cnc4[nH]ccc4c3)cc2[N+](=O)[O-])CC1 [Example 6, 4-(4-{[2-(4-chlorophenyl)-4,4-dimethylcyclohex-1-en-1-yl]methyl}piperazin-1-yl)-N-({4-[(4-methylpiperazin-1-yl)amino]-3-nitrophenyl}sulfonyl)-2-(1H-pyrrolo[2,3-b]pyridin-5-yloxy)benzamide]",18,18
"CO[C@H]1CC[C@H](CNc2ccc(S(=O)(=O)NC(=O)c3ccc(N4CCN(CC5=C(c6ccc(Cl)cc6)CCC6(CCCC6)C5)CC4)cc3Oc3cnc4[nH]ccc4c3)cc2[N+](=O)[O-])CC1 [Example 74, Trans-4-(4-{[8-(4-chlorophenyl)spiro[4.5]dec-7-en-7-yl]methyl}piperazin-1-yl)-N-[(4-{[(4-methoxycyclohexyl)methyl]amino}-3-nitrophenyl)sulfonyl]-2-(1H-pyrrolo[2,3-b]pyridin-5-yloxy)benzamide]",29,
"CC1(C)CCCC(c2ccc(Cl)cc2)=C1CN1CCN(c2ccc(C(=O)NS(=O)(=O)c3ccc(NCC4CCOCC4)c([N+](=O)[O-])c3)c(Oc3cnc4[nH]ccc4c3)c2)CC1 [Example 101, 4-(4-{[2-(4-chlorophenyl)-6,6-dimethylcyclohex-1-en-1-yl]methyl}piperazin-1-yl)-N-({3-nitro-4-[(tetrahydro-2H-pyran-4-ylmethyl)amino]phenyl}sulfonyl)-2-(1H-pyrrolo[2,3-b]pyridin-5-yloxy)benzamide]",21,
"CC1(C)CCC(CN2CCN(c3ccc(C(=O)NS(=O)(=O)c4ccc(N[C@H]5CC[C@H](NS(C)(=O)=O)CC5)c([N+](=O)[O-])c4)c(Oc4cnc5[nH]ccc5c4)c3)CC2)=C(c2ccc(Cl)cc2)C1 [Example 189, Trans-4-(4-{[2-(4-chlorophenyl)-4,4-dimethylcyclohex-1-en-1-yl]methyl}piperazin-1-yl)-N-{[4-({4-[(methylsulfonyl)amino]cyclohexyl}amino)-3-nitrophenyl]sulfonyl}-2-(1H-pyrrolo[2,3-b]pyridin-5-yloxy)benzamide]",18,
"CC1(C)CCC(CN2CCN(c3ccc(C(=O)NS(=O)(=O)c4cnc(N[C@@H]5CCN(C(CF)CF)C5)c(Cl)c4)c(Oc4cnc5[nH]ccc5c4)c3)CC2)=C(c2ccc(Cl)cc2)C1 [Example 231, N-[(5-chloro-6-{[(3R)-1-(1,3-difluoropropan-2-yl)pyrrolidin-3-yl]amino}pyridin-3-yl)sulfonyl]-4-(4-{[2-(4-chlorophenyl)-4,4-dimethylcyclohex-1-en-1-yl]methyl}piperazin-1-yl)-2-(1H-pyrrolo[2,3-b]pyridin-5-yloxy)benzamide]",770,
"O=C(NS(=O)(=O)c1cnc(OCC2CCOCC2)c(Cl)c1)c1ccc(N2CCN(CC3=C(c4ccc(Cl)cc4)CCC4(CCN(C(CF)CF)CC4)C3)CC2)cc1Oc1cnc2[nH]ccc2c1 [Example 267, 4-(4-{[9-(4-chlorophenyl)-3-(1,3-difluoropropan-2-yl)-3-azaspiro[5.5]undec-8-en-8-yl]methyl}piperazin-1-yl)-N-{[5-chloro-6-(tetrahydro-2H-pyran-4-ylmethoxy)pyridin-3-yl]sulfonyl}-2-(1H-pyrrolo[2,3-b]pyridin-5-yloxy)benzamide]",35,
"CO[C@H]1CC[C@H](COc2ncc(S(=O)(=O)NC(=O)c3ccc(N4CCN(CC5=C(c6ccc(Cl)cc6)CC(C)(C)CC5)CC4)cc3Oc3cnc4[nH]ccc4c3)cc2C(F)(F)F)CC1 [Example 300, 4-(4-{[2-(4-chlorophenyl)-4,4-dimethylcyclohex-1-en-1-yl]methyl}piperazin-1-yl)-N-({6-[(trans-4-methoxycyclohexyl)methoxy]-5-(trifluoromethyl)pyridin-3-yl}sulfonyl)-2-(1H-pyrrolo[2,3-b]pyridin-5-yloxy)benzamide]",1630,
"CO[C@H]1CC[C@@H](COc2ncc(S(=O)(=O)NC(=O)c3ccc(N4CCN(CC5=C(c6ccc(Cl)cc6)CC(C)(C)CC5)CC4)cc3Oc3cnc4[nH]ccc4c3)cc2C(F)(F)F)CC1 [Example 301, 4-(4-{[2-(4-chlorophenyl)-4,4-dimethylcyclohex-1-en-1-yl]methyl}piperazin-1-yl)-N-({6-[(cis-4-methoxycyclohexyl)methoxy]-5-(trifluoromethyl)pyridin-3-yl}sulfonyl)-2-(1H-pyrrolo[2,3-b]pyridin-5-yloxy)benzamide]",2060,
"CC1(C)CCC(CN2CCN(c3ccc(C(=O)NS(=O)(=O)c4cnc(OC[C@@H]5CN(C6CC6)CCO5)c(Cl)c4)c(Oc4cnc5[nH]ccc5c4)c3)CC2)=C(c2ccc(Cl)cc2)C1 [Example 314, N-[(5-chloro-6-{[(2S)-4-cyclopropylmorpholin-2-yl]methoxy}pyridin-3-yl)sulfonyl]-4-(4-{[2-(4-chlorophenyl)-4,4-dimethylcyclohex-1-en-1-yl]methyl}piperazin-1-yl)-2-(1H-pyrrolo[2,3-b]pyridin-5-yloxy)benzamide]",42,

# Where two headings read alike, the source gives them in different places.
